By UniProt entry, the sequences of proteins in these tests, tags left out.
UniProt O13833, whole entry: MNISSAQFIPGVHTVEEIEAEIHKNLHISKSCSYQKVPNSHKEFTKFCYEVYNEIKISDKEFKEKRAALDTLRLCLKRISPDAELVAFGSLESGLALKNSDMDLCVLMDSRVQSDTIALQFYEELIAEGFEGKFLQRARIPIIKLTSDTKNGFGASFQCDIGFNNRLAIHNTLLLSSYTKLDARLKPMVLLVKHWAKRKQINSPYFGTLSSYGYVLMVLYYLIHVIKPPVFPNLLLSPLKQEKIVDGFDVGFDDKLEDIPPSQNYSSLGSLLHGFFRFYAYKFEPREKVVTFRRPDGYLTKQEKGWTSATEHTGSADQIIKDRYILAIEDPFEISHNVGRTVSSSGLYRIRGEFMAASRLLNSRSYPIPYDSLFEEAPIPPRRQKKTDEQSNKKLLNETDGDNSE

According to article PMC5449093, “Selective inhibitors of trypanosomal uridylyl transferase RET1 establish druggability of RNA post-transcriptional modifications” (RNA Biology, 2016):

Target: CID1 poly (U) polymerase (Schizosaccharomyces pombe, UniProt O13833)
Details: read-out: CID1 Inhibition IC50; UTP 18 µM, RNA 3 nM, 37 °C

## CC1(COc2ccc(CC3SC(=O)NC3=O)cc2)CCCCC1 (stereo not shown)
  IC50: 1000 µM
